## Yeast mating assay B: variants of the scFv Ab-14

The measurements come from Li et al. 2023 (doi:10.1038/s41467-023-39022-2) through the FLAb antibody collection.

The target is the same throughout: PDVDLGDISGINAS, from the HR2 region of SARS-CoV-2 spike.

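The parent was found by panning a naive human phage display library on the peptide. These sequences belong to a second round, designed from the earlier measurements on random variants of the parent. Group labels follow the data file (Ctrl: baseline library sampled from a position-specific scoring matrix, with some repeated check sequences; En: ensemble of fine-tuned language models; GP: Gaussian process model; GPLM: also part of the Gaussian process libraries; HC: hill climbing; Gen: genetic algorithm; Gibbs: Gibbs sampling; a sequence that several methods proposed may carry one label only). In AlphaSeq, yeast of one mating type display the scFv and yeast of the other type display the target. Binding brings cells together so that they mate, and sequencing counts the barcode pairs among the diploids. A regression on co-assayed BCL2-family reference pairs converts the normalised counts of each replicate to an apparent Kd. Each pool was mated in six replicate cultures.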

Parent: Ab-14, a human scFv built as VH, three GGGGS repeats, VL. Only the CDRs of the light chain vary.
VH: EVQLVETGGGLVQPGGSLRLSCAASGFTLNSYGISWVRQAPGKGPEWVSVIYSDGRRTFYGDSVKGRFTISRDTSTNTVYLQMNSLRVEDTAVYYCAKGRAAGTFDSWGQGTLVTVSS
VL: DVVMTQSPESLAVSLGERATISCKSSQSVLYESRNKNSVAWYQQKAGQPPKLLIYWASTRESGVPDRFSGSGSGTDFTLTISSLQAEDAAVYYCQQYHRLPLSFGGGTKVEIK

Variants are written as CDR1, CDR2 and CDR3 of the light chain (limits as in the source). Parent: KSSQSVLYESRNKNSVA, WASTRES, QQYHRLPLS. Values are log10 of the apparent Kd in nM; lower means stronger binding. A mean of the replicates is given; it leaves out those without a signal. "n.d." means that the variant was in the library but no mating with the target was seen in that replicate; the authors take this as a sign of poor binding, and no number exists. Values of this round are not directly comparable with the first-round values of the same sequences.

"replicates, log10 nM",mean log10 Kd (nM),empty controls,CDR-L1,CDR-L2,CDR-L3,group
0.43 1.27 0.78 0.64 0.48 0.90,0.75,0/18,MISQVMNSLTHTGNNVA,DLQERED,QQYFRLPLS,En_Gen
0.39 0.41 0.31 0.33 0.25 0.35,0.34,2/18 (2.75),KSSQSYLYESRNKNSVA,GASTRES,QQYHRLPLS,GPLM_HC
-0.09 -0.08 -0.07 -0.20 -0.20 0.04,-0.10,0/18,KSEQSWPYESRNKNSVA,NASTRES,QQYHRLPLS,GP_Gen
0.58 0.25 0.18 0.19 0.34 0.49,0.34,1/18 (3.23),NIYQAMHTLMQVKNNIA,DVTNRNQ,QQYHRLPLS,En_Gen
2.09 2.60 1.76 2.49 3.05 2.23,2.37,0/18,KSSQSVGYESRNKNSVA,CASIRES,QQYHRLPLS,Ctrl
0.52 0.31 0.39 0.07 0.27 0.28,0.31,3/18 (3.10),KSMTSMPYESRNKNSVA,EASTREL,QQYHRLPLS,GP_Gibbs
0.34 0.18 0.34 -0.31 -0.19 -0.03,0.06,0/18,KNSQGVLYESLNKNSVA,DASTRES,QQYHRLPLS,Ctrl
0.47 -0.20 -0.22 -0.20 -0.03 -0.28,-0.08,0/18,KLSQSWLYESRAKNSVA,NASQRES,QQYHRLPLS,GP_Gen
0.28 0.22 -0.02 0.18 0.09 0.54,0.22,0/18,KLSQSNLYEWRNDNSVA,NASQRMS,QQYHRLPLS,GP_Gibbs
0.39 0.35 -0.15 0.33 0.18 0.50,0.26,2/18 (2.39),SISSLTLYESVNKNNVA,EMSTRPS,QSYHRLPLS,En_HC
-0.02 -0.26 0.05 -0.37 -0.38 -0.35,-0.22,0/18,KLFMSQLYESRNKNSVA,NASTRES,QQYHRLPLS,GP_HC
0.08 -0.22 -0.02 -0.35 -0.18 -0.09,-0.13,0/18,KLSQSDLGESRNKNSVA,HASTRES,QQYHRLPLS,GP_Gen
1.25 1.34 1.10 1.50 1.19 1.48,1.31,0/18,KSSQSVLYESVNKNSVA,WASTREN,QQYHRLPLS,Ctrl
1.14 0.98 0.70 1.16 1.92 1.35,1.21,0/18,KLTQTMRFEQKKKNNIA,EVSERSK,QQYFRLPLA,En_Gen
0.72 0.69 0.97 0.61 0.72 0.92,0.77,2/18 (2.02),KISYMGEYFSTNHSAIA,QASTREQ,QQYHRLPLS,En_HC
1.51 1.19 1.89 1.52 1.57 1.19,1.48,0/18,KLLQTVMNGRYNRNNVA,HMTMRED,QQYFRLPLS,En_HC
0.55 0.30 0.39 0.28 0.36 0.78,0.44,2/18 (2.78),TISQMTSLFSQSINNVA,EVSTRLN,QQYDRLPLA,En_Gen
0.42 0.16 0.11 0.11 -0.10 0.15,0.14,2/18 (3.46),KLSQSQLYESRMKNSVA,NASTRCS,QQYHRLPLS,GP_Gen
1.25 0.92 1.08 1.22 0.88 1.08,1.07,1/18 (3.61),KFSQMSNMFSVSMNAVA,EMSTRTD,QQYNRLPLA,En_Gen
0.92 0.78 0.65 0.56 0.48 0.58,0.66,1/18 (1.84),HMSALTLQGMRMRNSVA,QMTTREN,QQYDRLPLA,En_Gen
-0.01 0.09 -0.10 -0.33 -0.21 -0.06,-0.10,2/18 (3.09),KVMQSVLYESRNVNNVA,NGSTRES,QQYHRLPLS,GP_Gibbs
1.87 1.50 1.82 1.62 2.03 1.46,1.72,3/18 (2.66),VLGQNHDEREMYCDNIA,DATHREA,QQYYRLPFV,En_Gibbs
-0.21 -0.45 -0.49 -0.53 -0.42 -0.38,-0.41,0/18,KLSQSELYMDRNANNVA,NASTRMS,QQYHRLPLS,GP_Gibbs
0.22 0.08 0.08 0.02 0.16 0.31,0.14,1/18 (2.21),KLSQAVWYESRNKNSVA,EASLRES,QQYHRLPLS,GP_Gibbs
0.89 0.91 0.53 0.78 0.72 0.78,0.77,1/18 (1.98),QMTESDHGHQAGVGSIA,DATETME,QQYMHLPLS,En_Gibbs
1.84 0.97 1.29 2.23 2.08 1.35,1.63,0/18,MISQVLNTLTKEGSNVA,DLAERER,QQYFRLPLS,En_Gen
0.72 0.05 0.51 0.34 0.28 -0.10,0.30,2/18 (1.99),KLSMSYRYESQEKNSIA,EMSTREE,QSYHRLPLA,En_HC
n.d. n.d. n.d. n.d. n.d. n.d.,n.d.,0/18,KSSNSVLYESRNKNQVA,WASTRES,QQYHRLPLS,Ctrl
-0.30 -0.22 -0.24 -0.48 -0.48 -0.40,-0.35,0/18,KLQQSVLYESRNKNSVA,EASQRES,QQYHRLPLS,GP_Gen
0.23 0.13 0.24 -0.14 -0.06 0.36,0.13,1/18 (2.05),ALSQSMDMTSRNINSVA,DLSTREN,QQYHRLPLS,En_HC
1.81 2.07 1.56 1.43 1.53 1.28,1.61,2/18 (2.54),KSSQSVFYESRNKNSVA,KASTRES,QQYHRLPLS,Ctrl
0.42 0.27 0.29 0.16 0.24 0.37,0.29,1/18 (3.11),MMSQVTGMELRQRNNVA,QTSTREA,QQYDRLPLI,En_Gen
n.d. n.d. n.d. n.d. n.d. n.d.,n.d.,1/18 (2.76),KSSQSVLYESRNKNSVA,WASTCES,QQYHRLPLS,Ctrl
-0.14 -0.16 -0.14 -0.21 -0.25 -0.22,-0.18,1/18 (2.82),KSYPSFLYESRNKNSVA,EASTRES,QQYHRLPLS,GP_HC
-0.31 -0.64 -0.70 -0.36 -0.63 -0.43,-0.51,0/18,KLSMSVLYESRNKNSVA,DASQRES,QQYHRLPLS,GP_Gen
1.19 1.63 1.05 2.14 0.71 1.36,1.35,4/18 (2.41),KLRMMTLTGGYFRNSVA,QASTREN,QSYHRLPLS,En_HC
0.33 0.64 0.55 0.55 0.46 0.58,0.52,1/18 (3.34),KLEGSKEYLSRWKNSVA,HASVREV,QQYHRLPLS,GP_Gibbs
1.41 1.26 1.22 1.21 0.16 1.51,1.13,0/18,KSSQSVSYESEIKNSVA,GASTRES,QQYHRLPLS,Ctrl
1.53 1.96 1.91 2.31 1.47 2.06,1.87,1/18 (1.79),QLFSRWGQLEEISYAVA,DATTVID,QQYMHLPLT,En_Gibbs
n.d. n.d. n.d. 1.90 n.d. n.d.,1.90,0/18,VMFMGLYWNNDETYAIA,DVTMKEK,QQYHRLPLM,En_Gibbs
-0.21 -0.56 -0.26 -0.38 -0.62 0.39,-0.27,0/18,HFSPSVPYESRNKNSVA,NASTREQ,QDYHRLPLS,GP_HC
0.64 0.16 0.72 1.54 0.40 0.23,0.62,0/18,KISQMVRVGSTVSNSIA,EEVTRAK,QQYHRLPLQ,En_Gen
2.20 1.41 1.41 1.91 n.d. 1.34,1.65,0/18,ALEMDTLGQKPKQNNIA,NDRMSTE,QQYYMLPLS,En_Gibbs
0.18 -0.01 0.21 -0.07 0.04 0.18,0.09,2/18 (3.54),KASQSFLYESRNVNSVA,GASTRDS,QQYHRLPLS,GP_HC
0.37 -0.04 0.01 -0.17 -0.19 -0.13,-0.03,2/18 (2.59),HISMSMNYLSRNKNSIA,EESTRES,QQYARLPLS,En_HC
1.12 0.46 0.59 0.62 0.67 0.80,0.71,0/18,KVQISWLMSSRNKNQVA,HASMRES,QQYHRLPLS,GP_Gibbs
-0.12 -0.26 -0.17 -0.52 -0.30 -0.18,-0.26,0/18,KSSQHDSYESRNKNSVA,DASTRES,QQYHRLPLS,Ctrl

A selection of 5 entries from above:

CDR-L1,CDR-L2,CDR-L3,group,"replicates, log10 nM",mean log10 Kd (nM),empty controls
HISMSMNYLSRNKNSIA,EESTRES,QQYARLPLS,En_HC,0.37 -0.04 0.01 -0.17 -0.19 -0.13,-0.03,2/18 (2.59)
KLSQSELYMDRNANNVA,NASTRMS,QQYHRLPLS,GP_Gibbs,-0.21 -0.45 -0.49 -0.53 -0.42 -0.38,-0.41,0/18
KNSQGVLYESLNKNSVA,DASTRES,QQYHRLPLS,Ctrl,0.34 0.18 0.34 -0.31 -0.19 -0.03,0.06,0/18
KISYMGEYFSTNHSAIA,QASTREQ,QQYHRLPLS,En_HC,0.72 0.69 0.97 0.61 0.72 0.92,0.77,2/18 (2.02)
KSSNSVLYESRNKNQVA,WASTRES,QQYHRLPLS,Ctrl,n.d. n.d. n.d. n.d. n.d. n.d.,n.d.,0/18

Background: pairings of all light chain designs with three empty control strains gave a value in 4% of cases (median 2.64, 5th percentile 1.59). Values in that range, when seen in few replicates, are hard to tell from nonspecific mating. The control count says in how many pairings with the empty strains this scFv gave a signal, with their mean in brackets. In the paper, a design with two or fewer of six values counts as a poor binder. Of ten entries with the parent sequence, four were seen in most replicates (averages 0.34 to 2.37), three in one and three in none, so single entries are noisy.